Reference: patent US9242941B2, “Alkyl, fluoroalkyl-1,4-benzodiazepinone compounds” (BRISTOL-MYERS SQUIBB COMPANY, priority 2012, dated 2016)

Experiment: human metabolic stability half-life assay
Conditions: microsomes, pH 7.4

Compound: CCC[C@H](C(N)=O)[C@@H](CC(C)C)C(=O)N[C@H]1N=C(c2ccccc2)c2ccccc2N(C)C1=O [Comparative Compound 56, reference compound]
- half-life at 0.5 µM: ≤ 9 min
